Reference: US20060040917A1, “Benzoxazepine derivatives as selective estrogen receptor modulators” (priority 2004, published 2006)

Sequences of proteins named here, by UniProt entry; tags and fusion partners are left off.
UniProt P03372, whole entry: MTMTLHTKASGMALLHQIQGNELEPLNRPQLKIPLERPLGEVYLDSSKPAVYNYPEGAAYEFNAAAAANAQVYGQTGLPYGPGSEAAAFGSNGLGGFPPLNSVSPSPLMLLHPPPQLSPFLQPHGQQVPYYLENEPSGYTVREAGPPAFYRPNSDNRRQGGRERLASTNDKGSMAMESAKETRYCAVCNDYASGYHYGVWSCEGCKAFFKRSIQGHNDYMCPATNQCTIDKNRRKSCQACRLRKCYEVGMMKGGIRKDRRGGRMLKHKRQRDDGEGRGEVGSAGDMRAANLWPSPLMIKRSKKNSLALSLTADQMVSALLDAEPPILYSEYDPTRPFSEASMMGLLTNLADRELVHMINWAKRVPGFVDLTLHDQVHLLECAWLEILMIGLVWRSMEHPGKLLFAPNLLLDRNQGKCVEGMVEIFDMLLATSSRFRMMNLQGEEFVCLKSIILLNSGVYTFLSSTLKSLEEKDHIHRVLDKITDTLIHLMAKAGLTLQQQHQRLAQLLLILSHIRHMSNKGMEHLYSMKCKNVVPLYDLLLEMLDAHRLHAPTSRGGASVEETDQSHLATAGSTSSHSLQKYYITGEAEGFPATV
UniProt Q92731, whole entry: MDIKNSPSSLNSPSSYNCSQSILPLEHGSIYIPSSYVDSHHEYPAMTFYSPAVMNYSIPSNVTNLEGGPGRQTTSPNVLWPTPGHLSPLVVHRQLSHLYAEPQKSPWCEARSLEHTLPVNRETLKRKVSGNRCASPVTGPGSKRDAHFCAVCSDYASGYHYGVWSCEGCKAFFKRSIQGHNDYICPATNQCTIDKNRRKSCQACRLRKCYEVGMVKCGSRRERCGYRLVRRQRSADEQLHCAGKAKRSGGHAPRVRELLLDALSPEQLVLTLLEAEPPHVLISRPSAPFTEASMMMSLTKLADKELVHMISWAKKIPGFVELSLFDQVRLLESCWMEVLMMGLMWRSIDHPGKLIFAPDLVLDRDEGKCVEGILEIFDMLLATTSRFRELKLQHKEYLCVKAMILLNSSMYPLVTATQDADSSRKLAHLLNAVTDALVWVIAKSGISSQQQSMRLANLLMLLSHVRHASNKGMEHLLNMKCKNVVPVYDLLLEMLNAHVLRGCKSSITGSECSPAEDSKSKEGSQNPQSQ

Assays:
[1] = molecular target: human estrogen receptor α (Homo sapiens, UniProt P03372); test: Estrogen Receptor α Flash Plate Assay; details: read-out: ERα Binding IC50; displacement of radio-labeled estrogen (0.5 nM), FlashPlate, 1 h room temperature
Method: Estrogen Receptor α Flash Plate Assay
This assay monitors binding of radio-labeled estrogen to the estrogen receptor. It is performed on a BioMek 2000 (Beckman). Plates are read in a scintillation counter (Packard TopCount), with decreased counts an indication of binding of a compound to the receptor. The assay was run according to the procedure described by Allan, et al., Anal. Biochem. (1999), 275(2), 243-247.
On day one, 100 μL of Estrogen Screening Buffer (ESB, Panvera) containing 5 mM dithiothreitol (DTT, Panvera), 0.5 μg mouse anti-estrogen receptor monoclonal antibody (SRA-1010, Stressgen) and 50 ng purified human estrogen receptor α (Panvera) were added to each well of a 96 well FlashPlate Plus plate crosslinked with goat anti-mouse antibodies (NEN Life Sciences). The plate was sealed and incubated at 4° C. overnight.
On day two, each well was washed three times with 200 μL PBS, pH 7.2, at room temperature. To each well was then added 98 μL radio-labeled estrogen (0.5 nM, which equals 6 nCi for a 120 Ci/mmol batch, Amersham), diluted in ESB and 5 mM dithiothreitol (DTT). To individual wells were then added 2.5 μL test compound diluted in 30% (v/v) dimethyl sulfoxide/50 mM HEPES, pH 7.5. The wells were mixed three times by aspiration, the plate sealed and incubated at room temperature for one hour. The wells were then counted for 1 min in a TopCount scintillation counter (Packard). […]

hER-β = hER-β (Homo sapiens, UniProt Q92731); test: Estrogen Receptor β Fluorescence Polarization Assay; details: read-out: ERβ Binding IC50; displacement of Fluormone ES2, fluorescence polarization, 1 h room temperature
Description: Estrogen Receptor β Fluorescence Polarization Assay
This assay monitors binding of a fluorescent analog of estrogen (Fluormone ES2, Panvera) to the estrogen receptor. Plates are read in a fluorometer that can be set to polarization mode. A decrease in […] relative to vehicle control is an indication of binding of a compound to the receptor.
It is crucial to avoid introduction of air bubbles into the reaction in each well of the 96 well plate throughout this procedure. (Bubbles on the surface of the reaction disrupt light flow, affecting the polarization reading.) However, it is also crucial to effectively mix the reaction components upon addition to the well.
On ice, a 2× standard mixture of Assay Buffer (Panvera), 10 nM DTT and 40 nM ES2 was prepared. On ice, a 2× reaction mixture of Assay Buffer (Panvera), and 20 nM hER-β (Panvera) and 40 nM ES2 was also prepared.
Dilutions of test compound were prepared in 30% (v/v) dimethyl sulfoxide/50 mM HEPES, pH 7.5. At this point, the dilutions were 40× the final required concentration.
The standard mixture at 50 μL was then added to each well. The reaction mixture at 48 μL was added to all wells. The compound dilution at 2.5 μL was added to the appropriate wells. […]
Each well on the plate was then read in an LjL Analyst with an excitation wavelength of […] and an emission wavelength of 538. […]

O=C(c1ccccc1)N1CC(c2ccc(O)cc2)COc2cc(O)ccc21 (centres unmarked)
IC50 [1]: 2.9 µM | IC50 (hER-β): 1.2 µM
